Test results: patent publication US20110262396A1, “COMBINATION TREATMENTS COMPRISING PROTEASE BINDING PROTEINS FOR INFLAMMATORY DISORDERS” (DYAX CORP., priority 2008, published 2011)

Test system: collagen-induced arthritis (CIA)
Experiment: CIA mouse model, DX-2712 as monotherapy or combined with DMARDs or BRMs (Example 7)
Type: in vivo, mouse (DBA/1)
Settings: end of study, 31 days of therapy; number in parentheses = dose in mg/kg (Table 12); DX-2712 20 mg/kg IP Q2D
Experimental: To further evaluate if DX-2712 can lower the optimal therapeutic doses of DMARDs or BRMs, DX-2712 was tested in a CIA model as a monotherapy or in combination with other DMARDs (methotrexate) or BRMs (ENBREL® or ORENCIA®). In combination groups, DX-2712 was combined with the suboptimal dose of methotrexate, ENBREL® or ORENCIA®, which was determined based on literature reports (Neurath et al. 1999. Clin. Exp. Immunol. 115:42-55; Newton et al. 2001. Ann. Rheum. Dis. 60:iii25-iii32; Zalevsky et al. 2007. J. Immunol. 179:1872-1883).
However, due to the lack of monotherapy with suboptimal dose of DMARD or BRM (1 mg/kg for methotrexate, 10 mg/kg for ENBREL®, and 1 mg/kg for ORENCIA®), a further in-depth study is carried out to determine the best suboptimal doses of the DMARD or BRMs to use in combination with DX-2712 and to confirm these preliminary findings.

Substance: Abatacept [Orencia (2)]
- % change in AI Score: −46.67%
